What was measured:
[1] = target: T1, hMOR (mu-opioid receptor) (Homo sapiens, UniProt P35372); test: […]GTPγS binding stimulation, CHO membrane homogenates; conditions: agonist mode; pH 7.4, 100 mM NaCl, 5 mM MgCl2, 30 μM GDP, 25 °C, 60 min; HCl salt
[2] = target: T2, hKOR (kappa-opioid receptor) (Homo sapiens, UniProt P41145); test: as above; conditions: agonist mode; pH 7.4, 100 mM NaCl, 5 mM MgCl2, 30 μM GDP, 25 °C, 60 min; HCl salt
[3] = target: T3, hDOR (delta-opioid receptor) (Homo sapiens, UniProt P41143); test: as above; conditions: agonist mode; pH 7.4, 100 mM NaCl, 5 mM MgCl2, 30 μM GDP, 25 °C, 60 min; HCl salt
[4] = target: T1, hMOR (mu-opioid receptor); test: [3H]diprenorphine displacement, CHO membrane homogenates; conditions: read-out: Ki (nM) ^a / MOR; 25 °C, 1 h, 0.2–0.5 nM 3H-diprenorphine; HCl salt
[5] = target: T2, hKOR (kappa-opioid receptor); test: as above; conditions: read-out: Ki (nM) ^a / KOR; 25 °C, 1 h, 0.2–0.5 nM 3H-diprenorphine; HCl salt
[6] = target: T3, hDOR (delta-opioid receptor); test: as above; conditions: read-out: Ki (nM) ^a / DOR; 25 °C, 1 h, 0.2–0.5 nM 3H-diprenorphine; HCl salt

Protein sequences, listed by entry. Tags and fused reporters are not part of them.
UniProt P41145, whole entry: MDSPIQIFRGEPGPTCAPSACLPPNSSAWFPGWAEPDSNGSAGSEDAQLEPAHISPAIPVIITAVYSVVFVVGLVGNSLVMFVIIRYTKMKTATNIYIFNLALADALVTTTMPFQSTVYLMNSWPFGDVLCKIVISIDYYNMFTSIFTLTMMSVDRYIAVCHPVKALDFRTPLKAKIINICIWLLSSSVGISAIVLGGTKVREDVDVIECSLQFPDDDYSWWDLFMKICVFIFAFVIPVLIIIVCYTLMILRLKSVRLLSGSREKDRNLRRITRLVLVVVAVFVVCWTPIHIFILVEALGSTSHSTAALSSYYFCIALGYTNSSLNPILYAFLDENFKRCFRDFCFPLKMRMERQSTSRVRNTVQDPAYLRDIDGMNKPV
UniProt P41143, whole entry: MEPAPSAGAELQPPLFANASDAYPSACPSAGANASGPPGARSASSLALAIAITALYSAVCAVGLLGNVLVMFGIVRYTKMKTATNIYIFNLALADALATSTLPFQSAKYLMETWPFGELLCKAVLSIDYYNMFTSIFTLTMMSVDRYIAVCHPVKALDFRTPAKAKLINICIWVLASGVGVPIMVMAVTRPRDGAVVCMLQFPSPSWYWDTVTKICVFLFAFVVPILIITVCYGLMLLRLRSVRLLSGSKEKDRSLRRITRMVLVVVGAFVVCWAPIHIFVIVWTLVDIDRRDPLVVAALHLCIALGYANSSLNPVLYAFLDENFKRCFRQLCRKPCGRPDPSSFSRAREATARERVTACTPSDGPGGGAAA

`CO[C@]12CC[C@@]3(C[C@]1(C)CO)[C@H]1Cc4ccc(O)c5c4[C@@]3(CCN1CC1CC1)[C@H]2O5` was tested, and the EC50 [1] was > 10000 nM, the EC50 [2] was > 10000 nM and the EC50 [3] was > 10000 nM. The Ki [4] was 0.27 nM, the Ki [5] was 0.17 nM and the Ki [6] was 0.47 nM.
